Antibody variant affinities, Ab-14 light chain, assay 1

Reference: Engelhart et al. 2022, doi:10.1038/s41597-022-01779-4. File: FLAb, binding data.

The target is the same throughout: PDVDLGDISGINAS, from the HR2 region of SARS-CoV-2 spike.

Each scFv is VH, three GGGGS repeats, VL, as in the parent Ab-14, and differs from it in the CDRs of the light chain only.
VH: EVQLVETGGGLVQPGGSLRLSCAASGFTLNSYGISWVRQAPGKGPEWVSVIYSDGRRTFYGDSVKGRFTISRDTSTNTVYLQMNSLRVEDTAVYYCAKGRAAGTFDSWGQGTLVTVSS
VL: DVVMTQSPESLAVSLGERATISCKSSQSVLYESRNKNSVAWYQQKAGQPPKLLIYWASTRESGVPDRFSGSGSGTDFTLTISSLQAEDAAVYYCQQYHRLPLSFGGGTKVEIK

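The library (AAYL50) carries one to three amino acid substitutions per variant, with no insertions or deletions. In AlphaSeq, yeast of one mating type display the scFv and yeast of the other type display the target. Binding brings cells together so that they mate, and sequencing counts the barcode pairs among the diploids. Each replicate has its own calibration line, from reference interactions of the BCL2 family. There are three technical replicates.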

Variants are written as CDR1, CDR2 and CDR3 of the light chain (limits as in the source). Parent: KSSQSVLYESRNKNSVA, WASTRES, QQYHRLPLS.
All variants listed here change L102 of the VL, counted from its first residue.
Scale: log10 of Kd in nM, estimated from mating counts; low values are strong binders.
Replicates are averaged; those with no signal do not enter the mean.
Where no diploid with the target was found in any replicate, the entry reads "nd": below detection, most likely a poor binder, though not proof of it.
Order: sorted from the lowest average up, undetected variants last.

With KSSQSVLYESRNKNSVA / WASTREA / QQYHRLPFS the result was 0.67 (3 of 3 replicates). The variant KNSQSLLYESRNKNSVA / WASTRES / QQYHRLPVS showed 0.90 (3 of 3 replicates). The variant KSSQSVLYEARNKNSVA / WASTRES / QQYHQLPDS gave 0.96 (3 of 3 replicates). With KSSQSVLYESRNKNSVA / WASTRES / MKYHRLPES the result was 0.97 (3 of 3 replicates). For KSSQSVCYESRNKNSVA / WASTRES / HQYHRLPGS, the assay gave 1.40 (3 of 3 replicates). With ISEQSVLYESRNKNSVA / WASTRES / QQYHRLPYS the result was 1.49 (3 of 3 replicates). The variant KSSQSVLYESRNVNSVA / WASTRES / VQYHRLPES gave 1.73 (3 of 3 replicates).

With KSSQSVLYESRNMNSVA / WDSTRES / QQYHRLPNS the result was 1.79 (3 of 3 replicates). The variant KSSQSVLYESRNKNSVA / WASDRET / QQYHRLPAS showed 1.92 (3 of 3 replicates). The variant KHSQAVLYESRNKNSVA / WASTRES / QQYHRLPSS showed 2.92 (1 of 3 replicates). The variant KSDQSVLYESRNKNSVA / WASTRES / QQFHRLPHS gave 3.14 (3 of 3 replicates). The variant KSSQSHLYESRNKNSVA / WASTRES / QQYHPLPTS showed 3.39 (1 of 3 replicates). With KSSQSVLYESRNRNSVA / WASTRES / GQYHRLPNS the result was 3.47 (3 of 3 replicates). The variant KSSQSVLYESRNKNSVA / WASTREI / QQYHILPTS showed 3.50 (3 of 3 replicates).

With KSSQSVLYESRNKNSVA / WMSTRES / QQYHRIPPS the result was 3.71 (3 of 3 replicates). The variant KSSQSVLYESRNKNSVA / WASTRES / QQYHRLSYS showed 3.93 (2 of 3 replicates). For KSSQSVLYESRNKTSVA / WPSTRES / QQYHRLPRS, the assay gave 4.49 (1 of 3 replicates). The variant KSSQSVLEESRNKNSVA / WASTDES / QQYHRLPES showed 5.05 (1 of 3 replicates). The variant KSSQSVLYESRNKNSVW / WASTRES / QQYHRLPWS showed 5.06 (1 of 3 replicates). The variant KSSQSVLYDSRNKNSVA / WFSTRES / QQYHRLPWS showed 5.19 (1 of 3 replicates). The variant KSNQSVLYESRNKNSVA / WSSTRES / QQYHRLPRS showed nd (0 of 3 replicates).

For KSSQSVLYESRNKNSVA / WASTRER / QFYHRLPHS, the assay gave nd (0 of 3 replicates). For KSSQSVLYESRNLNSVA / WASTRES / QQYARLPSS, the assay gave nd (0 of 3 replicates). The variant KSSQSVLYESRNKNTVQ / WASTRES / QQYHRLPIS showed nd (0 of 3 replicates). With KSSQSVLYESRNKNSVA / PAKTRES / QQYHRLPKS the result was nd (0 of 3 replicates). With KSSQSVLYESRNKMSVR / WASTRES / QQYHRLPVS the result was nd (0 of 3 replicates). The variant KSSQSVLYESRNKNSVA / WVSTRES / QQYERLPAS gave nd (0 of 3 replicates). The variant KSSMSVLYESRNKNSVA / WASTRES / QQYHRLPHH gave nd (0 of 3 replicates).

With KSSQSVLYESRNKNSDA / WASTRES / QQQHRLPRS the result was nd (0 of 3 replicates). The variant KSSQSVLWESRNKNSVA / WASTRES / QQYHVLPQS gave nd (0 of 3 replicates). The variant KSSQSVLYESSNKNSVA / WASTRES / QQYHRLPYS showed nd (0 of 3 replicates). For KSSQSVLYESRNKNSVA / WAWTRPS / QQYHRLPPS, the assay gave nd (0 of 3 replicates). For KSSQSVLYESRNKNSHA / DASTRES / QQYHRLPHS, the assay gave nd (0 of 3 replicates). The variant KSSQSVLYESRNKNSVA / WASTRES / QQYHRLPTS gave nd (0 of 3 replicates). With KSSQSVLYESRNKNSVA / WASFRES / QQYHRLPHS the result was nd (0 of 3 replicates).

For reference, 3 entries of the list once more:

CDR-L1	CDR-L2	CDR-L3	mean, log10 nM	replicates with signal
KSSQSVLYESSNKNSVA	WASTRES	QQYHRLPYS	nd	0 of 3
KSSQSVLYESRNKNSVA	WAWTRPS	QQYHRLPPS	nd	0 of 3
KSSMSVLYESRNKNSVA	WASTRES	QQYHRLPHH	nd	0 of 3

In this assay the parent's reference entry averaged 0.65; its copy inside this library read 1.68.
Three control strains display no target. For library AAYL50, 18% of the pairings with them gave a signal, with a median of 4.19 and one signal in twenty below 2.99, so weak values seen in few replicates may be background.